Measurements taken from US8791267B2, “Biaryl PDE4 inhibitors for treating inflammatory, cardiovascular and CNS disorders” (Decode Genetics EHF, priority 2007, dated 2014).

The chains behind the UniProt entries cited, without tags or fusion partners. Where a name states a change or a piece, a line headed by the entry shows the natural chain unless it says otherwise.
UniProt Q08499: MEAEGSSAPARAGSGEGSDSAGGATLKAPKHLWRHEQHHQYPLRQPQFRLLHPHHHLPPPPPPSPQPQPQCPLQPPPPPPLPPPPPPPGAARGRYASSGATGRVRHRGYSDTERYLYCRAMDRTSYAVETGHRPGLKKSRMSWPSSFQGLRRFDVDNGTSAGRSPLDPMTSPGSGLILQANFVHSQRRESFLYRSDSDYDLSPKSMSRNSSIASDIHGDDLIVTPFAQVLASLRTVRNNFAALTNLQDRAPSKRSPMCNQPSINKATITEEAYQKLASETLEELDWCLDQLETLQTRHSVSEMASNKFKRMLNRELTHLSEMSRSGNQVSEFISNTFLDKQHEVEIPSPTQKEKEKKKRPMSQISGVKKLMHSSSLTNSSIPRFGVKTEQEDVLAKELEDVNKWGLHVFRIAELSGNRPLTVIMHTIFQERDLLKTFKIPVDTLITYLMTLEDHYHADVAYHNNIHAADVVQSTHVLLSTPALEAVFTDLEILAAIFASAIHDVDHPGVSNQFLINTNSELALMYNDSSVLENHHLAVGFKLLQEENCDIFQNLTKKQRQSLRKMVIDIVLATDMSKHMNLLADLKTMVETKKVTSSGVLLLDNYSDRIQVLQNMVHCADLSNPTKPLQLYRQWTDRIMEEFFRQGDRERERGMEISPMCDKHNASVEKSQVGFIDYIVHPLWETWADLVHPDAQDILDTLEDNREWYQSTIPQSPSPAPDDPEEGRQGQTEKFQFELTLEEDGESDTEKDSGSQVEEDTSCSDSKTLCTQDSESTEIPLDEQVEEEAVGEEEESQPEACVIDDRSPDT
UniProt Q07343: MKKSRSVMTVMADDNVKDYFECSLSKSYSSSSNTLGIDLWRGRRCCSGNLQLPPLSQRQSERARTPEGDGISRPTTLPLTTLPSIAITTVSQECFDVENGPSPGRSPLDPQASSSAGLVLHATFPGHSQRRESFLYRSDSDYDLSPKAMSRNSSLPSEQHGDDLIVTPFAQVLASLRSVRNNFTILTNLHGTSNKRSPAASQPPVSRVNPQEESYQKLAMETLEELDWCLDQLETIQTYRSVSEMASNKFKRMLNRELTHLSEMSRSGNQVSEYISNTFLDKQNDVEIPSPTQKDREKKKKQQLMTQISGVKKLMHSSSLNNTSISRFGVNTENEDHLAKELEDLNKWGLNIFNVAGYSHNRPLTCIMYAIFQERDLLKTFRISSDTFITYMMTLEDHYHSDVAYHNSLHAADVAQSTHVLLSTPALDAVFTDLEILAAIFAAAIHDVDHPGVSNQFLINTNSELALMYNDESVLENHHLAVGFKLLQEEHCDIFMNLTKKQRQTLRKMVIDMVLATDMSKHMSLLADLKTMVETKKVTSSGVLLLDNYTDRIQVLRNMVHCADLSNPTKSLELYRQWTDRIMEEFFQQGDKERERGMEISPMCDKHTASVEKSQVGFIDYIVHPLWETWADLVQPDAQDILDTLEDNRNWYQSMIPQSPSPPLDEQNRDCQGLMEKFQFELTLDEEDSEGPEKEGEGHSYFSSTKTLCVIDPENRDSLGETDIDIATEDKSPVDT

How the values were obtained:
PDE4 = PDE4 (Homo sapiens, UniProt Q08499); assay: In-vitro assay for PDE4 enzymes, real-time enzyme-coupled spectrophotometric assay (Table 9); assay type: biochemical; details: read-out: hPDE4D, human PDE4D, activity class
PDE4B = PDE4B (Homo sapiens, UniProt Q07343); assay: In-vitro assay for PDE4 enzymes, real-time enzyme-coupled spectrophotometric assay, PDE4B Activity (Table 10); assay type: biochemical; details: read-out: PDE4B Activity, hPDE4B

**Q.** With `COc1ccc(CC23OCC(C)(CO2)CO3)cc1-c1cccc([N+](=O)[O-])c1` as the compound, how does the IC50 (PDE4) read?
**A.** The IC50 was less than 5 µM.

**Q.** And the IC50 (PDE4B)?
**A.** Its IC50 is 5 to 20 µM.
